## Ab-14 light chain CDR variants: yeast mating affinities

Data: MIT Lincoln Laboratory AlphaSeq set, Engelhart et al. 2022, doi:10.1038/s41597-022-01779-4, as distributed in FLAb.

Antigen: PDVDLGDISGINAS, a 14-residue peptide of the SARS-CoV-2 spike HR2 region.

The variants keep the heavy chain, the linker and the frameworks of Ab-14 (scFv order VH, the linker GGGGSGGGGSGGGGS, VL).
VH: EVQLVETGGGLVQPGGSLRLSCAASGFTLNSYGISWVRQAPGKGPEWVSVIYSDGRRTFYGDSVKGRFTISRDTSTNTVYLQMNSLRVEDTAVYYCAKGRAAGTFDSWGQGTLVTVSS
VL: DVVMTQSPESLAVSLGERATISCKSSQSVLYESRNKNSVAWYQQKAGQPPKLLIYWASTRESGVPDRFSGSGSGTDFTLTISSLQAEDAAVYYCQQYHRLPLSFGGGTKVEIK

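The parent was found by panning a naive human phage display library on the peptide. AAYL50 was designed without a model: most single CDR substitutions and a random sample of double and triple ones. Affinity was read by AlphaSeq, a pooled yeast mating assay with surface-displayed partners. After mating in shaken culture at 30 °C for 16 h, diploids were selected and their barcode pairs sequenced. Read counts were normalised to the haploid input and turned into Kd by a linear fit to BCL2-family pairs of known affinity, for each replicate. The assay was run in three technical replicates.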

Variants are written as CDR1, CDR2 and CDR3 of the light chain (limits as in the source). Parent: KSSQSVLYESRNKNSVA, WASTRES, QQYHRLPLS. Values are log10 of the apparent Kd in nM; lower means stronger binding. Replicates are averaged; those with no signal do not enter the mean. "n.d." marks a missing value. The strain was present, yet no cells mated with the target were sequenced in that replicate, which points to weak or no binding. As a blank, each scFv also met three strains without target: over library AAYL50, 18% of these pairings were detected, typically at 4.19 and seldom below 2.99. The control count says in how many pairings with the empty strains this scFv gave a signal, with their mean in brackets. In this assay the parent's reference entry averaged 0.65; its copy inside this library read 1.68.

| CDR-L1 | CDR-L2 | CDR-L3 | log10 Kd (nM) by replicate | log10 Kd (nM), mean | control signals |
|---|---|---|---|---|---|
| KSSQSVLYDNRNKNSVA | WASTRES | QQYHRLPLS | 0.37 0.58 0.50 | 0.48 | 2/9 (5.16) |
| ISSGSVLYESRNFNSVA | WASTRES | QQYHRLPLS | 2.02 2.13 2.18 | 2.11 | 0/9 |
| KSSQSMLYESRNITSVA | WASTRES | QQYHRLPLS | 1.82 1.82 1.48 | 1.71 | 0/9 |
| WSSHSVLYESRNKNSVA | WASTRES | QQYHRLTLS | 4.60 n.d. 4.44 | 4.52 | 0/9 |
| KSSQSVLYESRNKNIVA | WAPTRES | QQQHRLPLS | n.d. n.d. n.d. | n.d. | 0/9 |
| KSSQSVLYESWNKNSGA | WASTRES | QQYHRLPNS | n.d. n.d. n.d. | n.d. | 1/9 (2.53) |
| KSGQSVLYESRNKNSVA | WADTRES | QQYHRLPQS | n.d. 4.14 n.d. | 4.14 | 3/9 (4.19) |
| KSSQIVCYPSRNKNSVA | WASTRES | QQYHRLPLS | 2.88 2.27 2.44 | 2.53 | 2/9 (3.94) |
| KSSQSVLYNSRNKNSVA | WASTREC | QQYHRLPLS | 1.18 1.28 1.40 | 1.29 | 1/9 (4.03) |
| KSSQSVLYESRNKNSVA | WASTRES | IGYHRLPLE | 0.75 0.96 0.90 | 0.87 | 0/9 |
| CSSQSVLHESCNKNSVA | WASTRES | QQYHRLPLS | n.d. n.d. n.d. | n.d. | 0/9 |
| KSSQSVLYESRNKNFEP | WASTRES | QQYHRLPLS | n.d. n.d. n.d. | n.d. | 1/9 (4.31) |
| KSWQSVHYESCNKNSVA | WASTRES | QQYHRLPLS | 3.40 2.63 2.86 | 2.96 | 0/9 |
| KSSQSVLYESRNKNSFA | WASTRES | EQYHRLPLS | n.d. n.d. n.d. | n.d. | 0/9 |
| KSSQSVLYESRNKNSVA | WASTRAS | QHYHRIPLS | 2.89 3.14 3.20 | 3.08 | 1/9 (4.34) |
| KSSQSVLYESRNKNSVA | WASMRYS | QQYHRLPLH | 1.65 1.58 2.83 | 2.02 | 1/9 (3.64) |
| GSSQSPLYESRNKNSVQ | WASTRES | QQYHRLPLS | n.d. 4.00 3.25 | 3.63 | 7/9 (4.22) |
| KSSQSVLYESRNKSSNA | WASTRES | QLYHRLPLS | n.d. n.d. n.d. | n.d. | 3/9 (5.17) |
| KSSQSVLYESFNKNSVA | WASTRES | KLYHRLPLS | n.d. n.d. n.d. | n.d. | 2/9 (4.31) |
| KSSQSVVYESRNKNSVA | WASQRES | QQYHRLCLS | n.d. n.d. n.d. | n.d. | 0/9 |
| KSSKSVLYESRNKNSVA | WASTRGS | QQYHRLPDS | n.d. n.d. n.d. | n.d. | 1/9 (2.18) |
| KSQQSVLYESRNKNEVA | WASTRES | QSYHRLPLS | 1.94 1.63 1.75 | 1.77 | 3/9 (4.39) |
| KSSQPVLYESRNKNSVA | FASTRES | QQYHRAPLS | n.d. n.d. n.d. | n.d. | 0/9 |
| KSSQSVLYESRWKHSVA | WASTRES | QQYARLPLS | 2.38 2.96 2.94 | 2.76 | 1/9 (3.36) |
| KSSQSVLYESRNKNQVA | TASTRES | QQYHNLPLS | n.d. n.d. n.d. | n.d. | 0/9 |
| KSSQSVLFESRNKNSIA | IASTRES | QQYHRLPLS | 5.35 n.d. n.d. | 5.35 | 3/9 (3.95) |
| KSSQSVLYERRCKNSVA | WASTVES | QQYHRLPLS | n.d. n.d. n.d. | n.d. | 2/9 (3.45) |
| KSSPSVLYESRNKCSVA | WASTRES | QQYHRGPLS | 3.13 2.59 n.d. | 2.86 | 0/9 |
| KSSQSVLYEKRNKNIVA | WASTKES | QQYHRLPLS | 4.09 3.56 n.d. | 3.82 | 6/9 (4.58) |
| KSSQSMLYESGNKNSVA | WASTRES | QQYLRLPLS | 0.09 0.35 0.16 | 0.20 | 5/9 (4.97) |
| KSSPSVLYESRNKNSVA | WADTRLS | QQYHRLPLS | 0.36 0.65 0.53 | 0.51 | 3/9 (5.34) |
| KSSQSVLVESRNKNSVA | WASTRES | QMYHRLPLY | 3.27 2.63 3.40 | 3.10 | 4/9 (3.77) |
| KSSQSVLYESRNKNSVA | GASTRGS | QQYHRLPQS | 3.58 n.d. n.d. | 3.58 | 1/9 (3.36) |
| KSSQSVLHECRNKNSVA | WASTRAS | QQYHRLPLS | 1.59 1.69 1.73 | 1.67 | 4/9 (4.89) |
| KSSQSVGYESRNKNSVA | WASTREK | QQGHRLPLS | n.d. n.d. n.d. | n.d. | 1/9 (3.04) |
| KSSQSVLPESRNKNSGA | WASTRES | QQYYRLPLS | 4.69 3.39 n.d. | 4.04 | 1/9 (4.35) |
| KSSQSVLNQSDNKNSVA | WASTRES | QQYHRLPLS | 0.67 0.86 0.64 | 0.72 | 5/9 (4.55) |
| ISSQSVLYESRNKNSIA | WASTRAS | QQYHRLPLS | 1.12 1.04 1.13 | 1.10 | 0/9 |
| KSSQSVLYCSDNKNSVA | WASTRES | QWYHRLPLS | n.d. n.d. n.d. | n.d. | 0/9 |
| KSSQSVLYCSRNKNSVA | WASTRES | QQYHRIMLS | n.d. n.d. n.d. | n.d. | 1/9 (3.90) |
| KSGQSVLYESRNKNSYA | WASTRES | QQYHRLPLS | n.d. 3.94 4.07 | 4.00 | 1/9 (4.29) |
| KSSQSVLYESRNKNSMA | WASTDES | QQYHRLPLY | n.d. n.d. n.d. | n.d. | 0/9 |

7 of these entries, quoted again:

CDR-L1,CDR-L2,CDR-L3,log10 Kd (nM) by replicate,"log10 Kd (nM), mean",control signals
ISSQSVLYESRNKNSIA,WASTRAS,QQYHRLPLS,1.12 1.04 1.13,1.10,0/9
KSSQSVLYCSDNKNSVA,WASTRES,QWYHRLPLS,n.d. n.d. n.d.,n.d.,0/9
KSSQSVLYESRNKNIVA,WAPTRES,QQQHRLPLS,n.d. n.d. n.d.,n.d.,0/9
KSSQSVLHECRNKNSVA,WASTRAS,QQYHRLPLS,1.59 1.69 1.73,1.67,4/9 (4.89)
KSSQSVLYESRNKNSMA,WASTDES,QQYHRLPLY,n.d. n.d. n.d.,n.d.,0/9
KSSQSVLYESRNKNFEP,WASTRES,QQYHRLPLS,n.d. n.d. n.d.,n.d.,1/9 (4.31)
KSSPSVLYESRNKNSVA,WADTRLS,QQYHRLPLS,0.36 0.65 0.53,0.51,3/9 (5.34)